Assay results published in publication PMC2748668 (Pharmacological research : the official journal of the …, 2009).

How the values were obtained:
OATP1B3 = conditions: cited from earlier work
OATP1B1 = conditions: cited from earlier work
human OATP1B1 = target: T1, human OATP1B1 (Homo sapiens, UniProt Q9Y6L6)
T1 sequence (Q9Y6L6 1-691): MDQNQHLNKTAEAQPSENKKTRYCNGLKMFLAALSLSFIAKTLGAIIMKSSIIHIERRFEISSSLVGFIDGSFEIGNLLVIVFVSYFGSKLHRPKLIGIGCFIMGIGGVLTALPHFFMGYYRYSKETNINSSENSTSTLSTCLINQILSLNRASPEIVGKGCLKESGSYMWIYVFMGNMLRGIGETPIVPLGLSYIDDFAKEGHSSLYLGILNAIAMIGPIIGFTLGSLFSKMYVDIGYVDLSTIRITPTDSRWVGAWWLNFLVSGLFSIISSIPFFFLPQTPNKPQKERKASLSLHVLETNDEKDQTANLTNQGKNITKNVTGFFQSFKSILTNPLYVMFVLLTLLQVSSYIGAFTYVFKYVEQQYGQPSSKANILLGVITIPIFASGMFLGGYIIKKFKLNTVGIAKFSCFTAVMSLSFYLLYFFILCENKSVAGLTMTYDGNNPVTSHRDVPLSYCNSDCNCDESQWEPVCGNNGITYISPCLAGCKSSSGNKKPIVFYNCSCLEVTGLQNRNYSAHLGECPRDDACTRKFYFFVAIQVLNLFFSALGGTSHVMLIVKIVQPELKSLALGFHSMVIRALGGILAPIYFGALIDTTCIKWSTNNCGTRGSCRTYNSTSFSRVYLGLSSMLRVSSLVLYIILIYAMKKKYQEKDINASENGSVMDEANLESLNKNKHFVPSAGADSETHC

| Structure (SMILES) | Effect on OATP1B3-mediated estradiol-17β-glucuronide transport (OATP1B3) | Effect on OATP1B1-mediated estradiol-17β-glucuronide transport (OATP1B1) | Inhibition of estradiol-17β-glucuronide uptake (in words) (human OATP1B1) |
| --- | --- | --- | --- |
| Clc1ccccc1C(c1ccccc1)(c1ccccc1)n1ccnc1 [Clotrimazole] | stimulated | inhibited |  |
| C[C@H](CCC(=O)NCCS(=O)(=O)O)[C@H]1CC[C@H]2[C@@H]3[C@H](O)C[C@@H]4C[C@H](O)CC[C@]4(C)[C@H]3C[C@H](O)[C@]12C [Taurocholic acid] |  |  | moderate inhibition |
